By UniProt entry, the sequences of proteins in these tests, tags left out.
UniProt P30082, whole entry: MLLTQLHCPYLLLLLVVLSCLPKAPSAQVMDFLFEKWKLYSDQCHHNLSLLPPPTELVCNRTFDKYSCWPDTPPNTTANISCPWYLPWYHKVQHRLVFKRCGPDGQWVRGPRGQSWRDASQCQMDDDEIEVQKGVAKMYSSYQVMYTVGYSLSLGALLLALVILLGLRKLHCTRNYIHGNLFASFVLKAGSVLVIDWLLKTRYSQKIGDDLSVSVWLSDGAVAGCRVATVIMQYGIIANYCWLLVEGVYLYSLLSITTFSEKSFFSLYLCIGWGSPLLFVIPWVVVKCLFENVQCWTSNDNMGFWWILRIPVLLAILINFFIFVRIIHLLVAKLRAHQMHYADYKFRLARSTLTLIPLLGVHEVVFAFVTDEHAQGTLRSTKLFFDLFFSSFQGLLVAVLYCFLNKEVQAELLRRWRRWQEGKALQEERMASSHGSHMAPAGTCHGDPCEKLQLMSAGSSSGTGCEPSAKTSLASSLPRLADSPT

In ChEMBL document CHEMBL1130110 (J Med Chem, 1997):

Tests used:
[1] = target: Glucagon receptor (Rattus norvegicus) (UniProt P30082); test: Percent stimulation of cAMP production over basal.; assay type: functional; design: concentration or dose not given beside the values
[2] = target: Glucagon receptor (Rattus norvegicus) (UniProt P30082); test: Relative binding potency expressed as receptor binding IC50 for glucagon by receptor binding IC50 for compound

GLUCAGON
Activity [1]: 100%
Activity [2]: 100%
